Values quoted from earlier work, collected in patent US10517869B2, “Topical brimonidine tartrate ophthalmic solution” (SENTISS PHARMA PRIVATE LIMITED, priority 2013, dated 2019).

Details: cited from earlier work

For `Brc1c(NC2=NCCN2)ccc2nccnc12` [Brimonidine], the pKa is listed as 7.4.
